Earlier results, collected in US20080317886A1, “Compositions for Preventing and Reducing Delayed Onset Muscle Soreness” (priority 2005, published 2008).

For “calcium beta-hydroxy-beta-methylbutyrate [CaHMB]”, the solubility in water is given as “soluble in water”.
